Here are results for 25 molecules from paper PMC6597003 (ACS chemical biology, 2018).

Chains of the proteins cited; added tags and fusions are not shown. Residues count along the entry.
UniProt P29317, 23-202: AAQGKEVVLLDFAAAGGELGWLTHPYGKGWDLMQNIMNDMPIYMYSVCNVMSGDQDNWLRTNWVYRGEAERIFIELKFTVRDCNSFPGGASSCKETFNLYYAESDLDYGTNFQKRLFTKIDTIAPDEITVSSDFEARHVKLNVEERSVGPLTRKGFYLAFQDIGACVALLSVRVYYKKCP

First the molecules themselves.
B1: 135E2 (peptide)
peptide: SAYPDSVPFRP
modifications: position 1: (4-F,3-C1PhOCH2CO) acyl cap (not in the letters, which begin at position 2); C-terminal amide
B2: 135G8 (peptide)
peptide: YCAYPDCVPFRP
modifications: cyclic: disulfide bridge between Cys at position 2 and Cys at position 7; C-terminal amide

One data set deals with ephrin type-A receptor 2 ligand-binding domain (UniProt P29317). The data set is described as follows: DELFIA displacement assay.
Settings: not given
For 135F4 (peptide), the IC50 was found to be 5.6 µM. This lies in the single-digit micromolar range. Turning to 135H2 (peptide), the half-maximal inhibitory concentration (IC50) stood at 1.7 µM. This IC50 lies about 3.3-fold lower than the previous one. For the molecule 135F11 (peptide), the IC50 is above 200 µM. Still for that read-out and setting: the value for 135F12 (peptide) was 4.1 µM; that for 135F3 (peptide) was 1.5 µM; that for 135F8 (peptide) was 7.6 µM.

Test system in the next data set: not given
Experiment: not given
The following applies: cited from earlier work.
Consider `CSCC[C@H](NC(=O)[C@H](CCSC)NC(=O)[C@@H]1CCCN1C(=O)[C@@H](NC(=O)[C@H](CO)NC(=O)[C@H](CC(=O)O)NC(=O)[C@@H]1CCCN1C(=O)[C@H](Cc1ccc(O)cc1)NC(=O)[C@H](C)NC(=O)[C@H](CO)NC(=O)[C@@H](N)Cc1ccc(O)cc1)C(C)C)C(=O)N[C@@H](CO)C(N)=O` [YSA], for which the stability in plasma entry is “fairly unstable in plasma with rapid hydrolysis by amino-peptidases”.

A further data set concerns the target T1, ephrin type-A receptor 2 ligand-binding domain (UniProt P29317 23-202). The data set is described as follows: DELFIA displacement assay.
Settings: not given
YSAFPDSVPFRP (position 4: 3C1Phe as printed, 3-chloro-Phe (X); C-terminal amide) [135F6] came in with an IC50 of 11.4 µM. On the same count and under the same terms, with YSAYPDSVPFR (C-terminal amide) [135C4] the figure was 4.9 µM; with YSAFSLGYEFHA (C-terminal amide) [ephrin A3 peptide], above 200 µM.

In turn, FTPFTLGKEFKE (C-terminal amide) [ephrin A1 peptide] yielded a 50% inhibitory concentration (IC50) above 200 µM.

As to YSAYPDSVPMRS (C-terminal amide) [135C7], the concentration for half-maximal inhibition (IC50) is 8.8 µM. On the same count and under the same terms, with YSAYPDSVPFFP (position 11: 4-Amino-Phe (X); C-terminal amide) [135E10] the figure was 2.3 µM; with YSAYPDSVPMMP (C-terminal amide) [135C9], 11.8 µM. Still for that read-out and setting: the value for YSAYPDSVPFFP (position 11: 4-Amimo-Methy1-Phe as printed (X); C-terminal amide) [135E11] was 1.3 µM. Still for that read-out and setting: the value for YSAYPDSVPMRP (C-terminal amide) [135C8] was 8.4 µM. YSAYPDSVEFRP (C-terminal amide) [135A8] came in with an IC50 of 36.3 µM. Against the preceding molecule, the IC50 is about 4.3-fold higher. As to YSAYPDSVPFKP (C-terminal amide) [135F1], the IC50 was found to be 1.5 µM. Compared with the last molecule, the IC50 is about 24-fold lower.

On to YSAYPDSVPFRS (C-terminal amide) [135C3], for which the IC50 was 4.4 µM. On the same count and under the same terms, with YSAYPDSVPFMS (C-terminal amide) [135C1] the figure was 7.5 µM; with FSPNLWGLEFQK (C-terminal amide) [ephrin B2 peptide], above 200 µM.

FTPFSLGFEFRP (C-terminal amide) [ephrins A2/A5/A4 peptide] registered an IC50 above 200 µM.

Take B1: the IC50 came out at 3.1 µM.

YSAYPDSVPFMP (C-terminal amide) [135C10] had an IC50 of 4.6 µM. The IC50 values of the last two molecules are within 1.5-fold of each other.

The target in another data set is T1, ephrin type-A receptor 2 ligand-binding …. The data set can be described thus: DELFIA displacement assay.
Settings: not given
The source holds these as a separate data set.
As to B2, the IC50 is 32.9 µM.
